The record followed here is ChEMBL document CHEMBL5120850, “Conformational adjustment overcomes multiple drug-resistance mutants of tropomyosin receptor kinase” (Eur J Med Chem, 2022).

Chains of the proteins cited; added tags and fusions are not shown. Lines headed by an entry give the natural chain unless they say otherwise; changes in a name come on top.
UniProt Q9UM73: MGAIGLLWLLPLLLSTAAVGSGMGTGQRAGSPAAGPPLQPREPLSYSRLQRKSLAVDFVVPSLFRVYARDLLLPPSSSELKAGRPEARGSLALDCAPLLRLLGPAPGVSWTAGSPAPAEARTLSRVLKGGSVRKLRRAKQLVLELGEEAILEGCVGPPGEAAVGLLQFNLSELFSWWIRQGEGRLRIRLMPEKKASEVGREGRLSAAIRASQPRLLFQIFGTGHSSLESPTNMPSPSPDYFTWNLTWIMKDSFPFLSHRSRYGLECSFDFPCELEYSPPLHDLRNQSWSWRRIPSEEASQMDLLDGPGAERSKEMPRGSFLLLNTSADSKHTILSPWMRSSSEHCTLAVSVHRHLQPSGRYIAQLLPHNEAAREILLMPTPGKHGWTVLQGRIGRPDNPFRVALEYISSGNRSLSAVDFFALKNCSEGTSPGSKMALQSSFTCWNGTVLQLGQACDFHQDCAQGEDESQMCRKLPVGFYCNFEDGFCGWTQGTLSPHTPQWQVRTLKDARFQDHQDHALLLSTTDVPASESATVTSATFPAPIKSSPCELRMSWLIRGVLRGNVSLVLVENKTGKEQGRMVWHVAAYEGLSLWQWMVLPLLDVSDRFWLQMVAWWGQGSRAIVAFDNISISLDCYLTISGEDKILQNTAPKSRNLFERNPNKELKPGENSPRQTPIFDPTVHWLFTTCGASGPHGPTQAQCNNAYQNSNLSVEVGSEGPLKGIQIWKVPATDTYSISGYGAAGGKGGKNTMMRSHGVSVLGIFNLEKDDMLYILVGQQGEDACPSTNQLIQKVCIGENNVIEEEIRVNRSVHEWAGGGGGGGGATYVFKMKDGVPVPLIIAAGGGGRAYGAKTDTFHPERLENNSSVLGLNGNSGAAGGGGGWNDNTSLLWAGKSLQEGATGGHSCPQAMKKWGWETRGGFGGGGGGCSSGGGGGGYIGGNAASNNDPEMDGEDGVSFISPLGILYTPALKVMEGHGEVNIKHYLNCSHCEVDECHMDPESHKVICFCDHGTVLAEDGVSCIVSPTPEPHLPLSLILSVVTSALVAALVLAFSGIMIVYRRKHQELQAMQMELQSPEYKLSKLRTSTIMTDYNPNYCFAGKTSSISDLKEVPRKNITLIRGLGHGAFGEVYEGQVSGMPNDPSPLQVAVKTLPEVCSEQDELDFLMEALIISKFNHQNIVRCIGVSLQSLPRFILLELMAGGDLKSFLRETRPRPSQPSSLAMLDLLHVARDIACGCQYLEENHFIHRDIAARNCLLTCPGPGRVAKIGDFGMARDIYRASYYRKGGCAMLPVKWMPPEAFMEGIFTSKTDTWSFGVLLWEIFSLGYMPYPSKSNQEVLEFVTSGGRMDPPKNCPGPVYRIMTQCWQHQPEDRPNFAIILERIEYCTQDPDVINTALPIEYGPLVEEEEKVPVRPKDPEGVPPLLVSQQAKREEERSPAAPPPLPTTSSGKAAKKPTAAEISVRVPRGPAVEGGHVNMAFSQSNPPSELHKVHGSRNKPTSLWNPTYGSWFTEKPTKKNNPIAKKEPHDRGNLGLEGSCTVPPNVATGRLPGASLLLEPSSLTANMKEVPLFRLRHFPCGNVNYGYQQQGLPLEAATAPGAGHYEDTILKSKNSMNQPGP
UniProt P08922: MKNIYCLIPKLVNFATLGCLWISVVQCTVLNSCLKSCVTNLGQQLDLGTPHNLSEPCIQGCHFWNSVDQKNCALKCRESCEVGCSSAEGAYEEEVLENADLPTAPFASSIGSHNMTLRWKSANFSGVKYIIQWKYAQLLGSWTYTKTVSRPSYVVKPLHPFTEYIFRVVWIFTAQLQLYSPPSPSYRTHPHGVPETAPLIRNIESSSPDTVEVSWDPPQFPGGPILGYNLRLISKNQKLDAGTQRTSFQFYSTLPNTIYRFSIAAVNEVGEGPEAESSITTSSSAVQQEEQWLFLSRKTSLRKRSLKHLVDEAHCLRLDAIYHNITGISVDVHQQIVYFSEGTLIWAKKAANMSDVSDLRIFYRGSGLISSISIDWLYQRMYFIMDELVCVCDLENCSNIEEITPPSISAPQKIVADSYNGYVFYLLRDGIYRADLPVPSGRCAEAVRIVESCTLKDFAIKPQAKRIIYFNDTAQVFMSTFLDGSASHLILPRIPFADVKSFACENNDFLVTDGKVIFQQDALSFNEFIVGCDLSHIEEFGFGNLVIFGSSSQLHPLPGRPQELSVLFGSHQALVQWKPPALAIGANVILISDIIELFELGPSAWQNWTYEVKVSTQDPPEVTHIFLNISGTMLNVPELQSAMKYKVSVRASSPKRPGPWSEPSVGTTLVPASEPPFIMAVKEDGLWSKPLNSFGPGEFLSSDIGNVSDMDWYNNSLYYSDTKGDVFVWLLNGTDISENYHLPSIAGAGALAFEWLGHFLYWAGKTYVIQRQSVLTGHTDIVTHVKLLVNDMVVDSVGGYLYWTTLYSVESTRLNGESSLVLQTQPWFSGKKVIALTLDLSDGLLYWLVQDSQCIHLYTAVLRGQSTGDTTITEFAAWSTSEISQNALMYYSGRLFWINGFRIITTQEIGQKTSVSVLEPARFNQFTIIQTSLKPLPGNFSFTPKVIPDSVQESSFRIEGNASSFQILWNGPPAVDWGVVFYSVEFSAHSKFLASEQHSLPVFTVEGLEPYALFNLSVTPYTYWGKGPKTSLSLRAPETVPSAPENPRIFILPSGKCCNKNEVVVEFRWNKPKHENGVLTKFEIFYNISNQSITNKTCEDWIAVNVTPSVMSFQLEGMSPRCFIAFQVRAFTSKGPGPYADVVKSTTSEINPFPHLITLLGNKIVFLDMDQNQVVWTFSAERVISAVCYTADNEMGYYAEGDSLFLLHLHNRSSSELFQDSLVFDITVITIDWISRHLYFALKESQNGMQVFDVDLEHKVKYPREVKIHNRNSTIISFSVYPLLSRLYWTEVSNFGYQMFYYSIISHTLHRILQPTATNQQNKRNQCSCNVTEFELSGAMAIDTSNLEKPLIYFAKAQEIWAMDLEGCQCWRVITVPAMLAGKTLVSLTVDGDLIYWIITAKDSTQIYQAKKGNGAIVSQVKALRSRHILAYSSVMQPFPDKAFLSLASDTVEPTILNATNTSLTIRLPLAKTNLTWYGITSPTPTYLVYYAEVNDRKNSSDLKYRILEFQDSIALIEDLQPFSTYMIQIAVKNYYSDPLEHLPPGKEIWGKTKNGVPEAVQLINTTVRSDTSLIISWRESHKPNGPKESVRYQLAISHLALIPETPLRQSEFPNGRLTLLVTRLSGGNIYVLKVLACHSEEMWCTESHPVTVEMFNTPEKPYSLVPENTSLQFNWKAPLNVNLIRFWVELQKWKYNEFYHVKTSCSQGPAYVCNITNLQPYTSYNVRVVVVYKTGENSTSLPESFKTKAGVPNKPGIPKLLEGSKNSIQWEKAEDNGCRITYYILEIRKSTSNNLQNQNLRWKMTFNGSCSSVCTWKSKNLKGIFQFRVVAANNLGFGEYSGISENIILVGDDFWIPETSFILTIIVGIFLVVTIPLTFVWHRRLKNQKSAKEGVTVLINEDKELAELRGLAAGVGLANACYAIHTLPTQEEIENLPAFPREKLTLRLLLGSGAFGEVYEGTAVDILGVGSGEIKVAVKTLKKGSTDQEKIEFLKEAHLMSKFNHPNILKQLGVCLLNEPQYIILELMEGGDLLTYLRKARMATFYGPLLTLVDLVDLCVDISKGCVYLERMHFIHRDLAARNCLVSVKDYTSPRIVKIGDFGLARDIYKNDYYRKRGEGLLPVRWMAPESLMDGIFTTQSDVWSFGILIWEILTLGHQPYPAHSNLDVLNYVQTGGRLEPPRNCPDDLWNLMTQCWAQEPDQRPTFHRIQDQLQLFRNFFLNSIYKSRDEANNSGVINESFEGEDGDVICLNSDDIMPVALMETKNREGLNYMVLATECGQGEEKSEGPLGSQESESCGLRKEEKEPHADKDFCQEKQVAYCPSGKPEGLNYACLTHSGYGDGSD
UniProt P23458: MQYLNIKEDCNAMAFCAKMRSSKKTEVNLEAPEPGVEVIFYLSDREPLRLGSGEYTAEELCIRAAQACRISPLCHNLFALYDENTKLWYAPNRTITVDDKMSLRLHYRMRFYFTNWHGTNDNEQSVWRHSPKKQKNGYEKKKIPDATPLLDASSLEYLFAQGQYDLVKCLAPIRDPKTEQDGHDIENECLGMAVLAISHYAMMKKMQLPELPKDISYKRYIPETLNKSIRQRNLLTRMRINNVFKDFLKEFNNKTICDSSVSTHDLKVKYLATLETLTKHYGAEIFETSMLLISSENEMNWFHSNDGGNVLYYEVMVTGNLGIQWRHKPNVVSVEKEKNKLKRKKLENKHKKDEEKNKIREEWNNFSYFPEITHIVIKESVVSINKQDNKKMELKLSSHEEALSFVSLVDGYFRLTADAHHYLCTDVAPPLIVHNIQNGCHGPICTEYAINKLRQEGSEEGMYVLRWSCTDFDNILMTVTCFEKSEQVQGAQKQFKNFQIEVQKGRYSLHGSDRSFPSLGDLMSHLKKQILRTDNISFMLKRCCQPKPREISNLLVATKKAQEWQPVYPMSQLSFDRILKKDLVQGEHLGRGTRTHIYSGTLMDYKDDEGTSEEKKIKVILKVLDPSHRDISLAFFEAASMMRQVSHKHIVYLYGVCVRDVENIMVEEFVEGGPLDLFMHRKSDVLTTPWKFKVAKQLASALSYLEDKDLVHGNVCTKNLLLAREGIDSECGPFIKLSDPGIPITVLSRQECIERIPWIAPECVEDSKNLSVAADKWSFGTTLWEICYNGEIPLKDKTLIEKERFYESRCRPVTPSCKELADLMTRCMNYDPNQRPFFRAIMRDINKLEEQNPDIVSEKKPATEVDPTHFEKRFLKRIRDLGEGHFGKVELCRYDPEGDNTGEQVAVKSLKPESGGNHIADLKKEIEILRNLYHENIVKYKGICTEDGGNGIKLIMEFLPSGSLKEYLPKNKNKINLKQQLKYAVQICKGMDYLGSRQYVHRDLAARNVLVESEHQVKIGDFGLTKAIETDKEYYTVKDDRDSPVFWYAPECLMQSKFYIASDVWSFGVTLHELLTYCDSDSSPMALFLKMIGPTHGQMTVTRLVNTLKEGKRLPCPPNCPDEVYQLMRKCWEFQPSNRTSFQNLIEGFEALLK

The target in assay [1] is ALK tyrosine kinase receptor (Homo sapiens) (UniProt Q9UM73). The assay is described as follows: Inhibition of ALK (unknown origin) at 1 uM relative to control.
In assay [2] the target is Proto-oncogene tyrosine-protein kinase ROS (Homo sapiens) (UniProt P08922). The experiment in a line: Inhibition of ROS1 (unknown origin) at 1 uM relative to control.
Assay [3] addresses Tyrosine-protein kinase JAK1 (Homo sapiens) (UniProt P23458). The experiment in a line: Inhibition of JAK1 (unknown origin) at 1 uM relative to control.

In the case of `Fc1ccc(OCC(F)(F)F)c([C@H]2CCCN2c2ccn3ncc(-c4cn[nH]c4)c3n2)c1`, the inhibition came out at 62% in assay [1], 99% in assay [2] and 11% in assay [3].
For the compound `C[C@@H]1CCc2ncc(F)cc2[C@H]2CCCN2c2ccn3ncc(c3n2)C(=O)N1` [SELITRECTINIB], the results for the inhibition in assay [1], in assay [2] and in assay [3] were 78%, 96% and 13%, respectively.

For orientation: inhibition means the percentage by which the read-out fell short of the control.
